This note sets out measurements from ChEMBL document CHEMBL2177029, “Medicinal chemistry of A₃ adenosine receptor modulators: pharmacological activities and therapeutic implications” (J Med Chem, 2012).

Amino acid sequences for entries named in this document (tags omitted).
UniProt P30543, whole entry: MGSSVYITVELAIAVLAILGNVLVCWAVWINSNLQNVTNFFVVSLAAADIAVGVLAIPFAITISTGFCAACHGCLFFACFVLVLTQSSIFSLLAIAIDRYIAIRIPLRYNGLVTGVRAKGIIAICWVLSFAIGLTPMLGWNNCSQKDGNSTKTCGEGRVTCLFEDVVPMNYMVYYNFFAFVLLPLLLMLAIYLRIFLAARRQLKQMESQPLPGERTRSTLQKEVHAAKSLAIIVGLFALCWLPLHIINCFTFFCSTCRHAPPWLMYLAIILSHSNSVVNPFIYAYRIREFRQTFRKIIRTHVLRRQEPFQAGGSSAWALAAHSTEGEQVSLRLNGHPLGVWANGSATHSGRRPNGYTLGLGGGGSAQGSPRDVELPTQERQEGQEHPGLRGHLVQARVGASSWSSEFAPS
UniProt P25099, whole entry: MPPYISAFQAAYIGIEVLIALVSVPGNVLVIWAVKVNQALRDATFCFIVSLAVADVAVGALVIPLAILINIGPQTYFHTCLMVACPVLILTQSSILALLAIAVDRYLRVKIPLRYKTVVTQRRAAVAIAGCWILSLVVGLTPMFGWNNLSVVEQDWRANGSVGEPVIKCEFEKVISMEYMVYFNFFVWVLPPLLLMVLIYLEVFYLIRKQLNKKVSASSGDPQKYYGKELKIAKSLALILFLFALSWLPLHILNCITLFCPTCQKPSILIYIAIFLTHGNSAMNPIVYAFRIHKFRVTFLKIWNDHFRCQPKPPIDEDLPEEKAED
UniProt P30542, whole entry: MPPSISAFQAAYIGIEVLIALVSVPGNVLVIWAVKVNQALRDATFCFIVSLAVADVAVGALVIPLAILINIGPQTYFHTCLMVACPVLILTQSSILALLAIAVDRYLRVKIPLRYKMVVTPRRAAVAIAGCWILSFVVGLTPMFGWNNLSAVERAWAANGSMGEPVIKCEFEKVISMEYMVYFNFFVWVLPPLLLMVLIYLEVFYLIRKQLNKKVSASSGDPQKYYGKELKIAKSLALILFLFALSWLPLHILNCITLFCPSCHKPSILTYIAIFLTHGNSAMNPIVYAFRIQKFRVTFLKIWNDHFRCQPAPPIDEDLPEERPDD

What all share (experiment): biochemical
Experiment [1] addresses Adenosine receptor A2a (Rattus norvegicus, UniProt P30543).
Experiment [2] addresses Adenosine receptor A1 (Rattus norvegicus, UniProt P25099).
For experiment [3], the target named is Adenosine receptor A1 (Homo sapiens, UniProt P30542).
The target of experiment [4] is Adenosine receptor A2a (Homo sapiens, UniProt P29274).

The structures appear in SMILES notation.

As to `CCCCn1c(=O)c2c(ncn2[C@@H]2O[C@H](C(=O)NC)[C@@H](O)[C@H]2O)n(CCCC)c1=O`, the Ki (as a rule, the equilibrium dissociation constant of an inhibitor or competing ligand from its target) on Adenosine receptor A2a [1] was above 10000 nM.
On Adenosine receptor A1 [2], `OC[C@H]1O[C@@H](n2cnc3c(NCC4c5ccccc5-c5ccccc54)ncnc32)[C@H](O)[C@@H]1O` gave a Ki of 9.4 nM.
On to `CCNC(=O)[C@H]1O[C@@H](n2cnc3c(NC(=O)Nc4ccc(S(=O)(=O)N(C)C(C)C)cc4)ncnc32)[C@H](O)[C@@H]1O`, for which the figures for the Ki on Adenosine receptor A1 [3] and at Adenosine receptor A2a [4] were 325 nM and above 1000 nM, respectively.
`O=C(Cc1ccccc1)Nc1nc2ccc(Cl)cc2c2nc(-c3ccco3)nn12`: on Adenosine receptor A1 [3], the Ki stood at 231 nM.
